What all share (assay type): biochemical
The target in experiment [1] is T1, Pim-1 (Homo sapiens (Human), UniProt P11309). Put plainly: Pim-Mn enzyme assay (HTRF, 384-well), Pim-1. The note with it: read-out: Pim-1-Mn IC50 IP.
Experiment [2] addresses T2, Pim-2 (Homo sapiens (Human), UniProt Q9P1W9). Put plainly: Pim enzyme assay (HTRF, 96-well), Pim-2. The note with it: full length recombinant Pim-2, biotinylated-BAD (S112) peptide, 10-point curve, 45 min RT, read-out: Pim-2 IC50 IP.
The target of experiment [3] is T1, Pim-1. Briefly: Pim enzyme assay (HTRF, 96-well), Pim-1. The note with it: full length recombinant Pim-1, biotinylated-BAD (S112) peptide, 10-point curve, 2 h RT, read-out: Pim-1 IC50 IP.
In experiment [4] the target is T2, Pim-2. Put plainly: Pim-Mn enzyme assay (HTRF, 384-well), Pim-2. As to conditions: read-out: Pim-2-Mn IC50 IP.
[5] abbreviates: Pim-1 enzyme 5 pM, ATP 1.5 μM, BAD (S112) 0.5 μM, HTRF, 22-point curve.
The mark [6] stands for this setting: Pim-2 enzyme 0.5 pM, ATP 1.5 μM, BAD (S112) 0.5 μM, HTRF, 22-point curve.

Chains of the proteins cited; added tags and fusions are not shown. Lines headed by an entry give the natural chain unless they say otherwise; changes in a name come on top.
UniProt P11309, whole entry: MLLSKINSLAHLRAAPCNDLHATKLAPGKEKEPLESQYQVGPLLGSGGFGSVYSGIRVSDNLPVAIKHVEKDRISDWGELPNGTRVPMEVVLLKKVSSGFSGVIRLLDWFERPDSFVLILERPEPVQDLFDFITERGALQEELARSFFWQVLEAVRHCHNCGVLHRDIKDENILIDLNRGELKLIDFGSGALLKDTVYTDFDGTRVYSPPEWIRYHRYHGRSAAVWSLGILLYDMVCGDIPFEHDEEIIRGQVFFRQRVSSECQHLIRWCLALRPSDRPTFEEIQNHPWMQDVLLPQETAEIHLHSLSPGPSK
UniProt Q9P1W9: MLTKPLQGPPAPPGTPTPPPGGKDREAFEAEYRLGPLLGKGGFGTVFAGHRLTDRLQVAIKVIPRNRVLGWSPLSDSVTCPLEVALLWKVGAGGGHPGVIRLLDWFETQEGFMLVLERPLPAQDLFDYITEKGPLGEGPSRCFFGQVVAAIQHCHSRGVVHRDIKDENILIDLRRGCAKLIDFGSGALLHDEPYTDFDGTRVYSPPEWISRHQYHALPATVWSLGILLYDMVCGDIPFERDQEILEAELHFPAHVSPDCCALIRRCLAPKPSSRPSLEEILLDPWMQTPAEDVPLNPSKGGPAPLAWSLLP

pIC50: −log10 of the molar value. Structures can show the parent of a compound that is named as a salt. Some results are limits rather than exact numbers.

For `Cc1nc2cccc(-c3cc4c([nH]3)CCNC4=O)c2nc1NC1CCC(=O)NC1` (racemic) [Example 199, rac-2-(2-methyl-3-((6-oxopiperidin-3-yl)amino)quinoxalin-5-yl)-6,7-dihydro-1H-pyrrolo[3,2-c]pyridin-4(5H)-one], the pIC50 at Pim-1 [1] (setting [5]) was 7.84.

Regarding `CC1CNC(=O)c2cc(-c3cccc4ccc(Nc5ccccc5)nc34)[nH]c21` (single isomer, unassigned) [Example 29, 7-methyl-2-(2-(phenylamino)quinolin-8-yl)-6,7-dihydro-1H-pyrrolo[3,2-c]pyridin-4(5H)-one], the figures for the pIC50 on Pim-2 [2] and on Pim-1 [3] were 8.62 and 9.30, respectively.

For the compound `CC1CNC(=O)c2cc(-c3cccc4ccc(Nc5ccccc5)nc34)[nH]c21` (single isomer, unassigned) [Example 30, 7-methyl-2-(2-(phenylamino)quinolin-8-yl)-6,7-dihydro-1H-pyrrolo[3,2-c]pyridin-4(5H)-one], the pIC50 on Pim-2 [2] was 7.63.

`CC1Cc2[nH]c(-c3cccc4ccc(Nc5ccccc5)nc34)cc2C(=O)N1` (single isomer, unassigned) [Example 33, 6-methyl-2-(2-(phenylamino)quinolin-8-yl)-6,7-dihydro-1H-pyrrolo[3,2-c]pyridin-4(5H)-one]: on Pim-1 [3], the pIC50 is 8.20.

As for `CC1Cc2[nH]c(-c3cccc4ccc(Nc5ccccc5)nc34)cc2C(=O)N1` (single isomer, unassigned) [Example 34, 6-methyl-2-(2-(phenylamino)quinolin-8-yl)-6,7-dihydro-1H-pyrrolo[3,2-c]pyridin-4(5H)-one], the negative logarithm of the IC50 (pIC50) at Pim-1 [3] is 7.74.

As for `CC(c1ccccc1)c1ccc2cccc(-c3cc4c([nH]3)CCNC4=O)c2n1` (single isomer, unassigned) [Example 115, 2-(2-(1-phenylethyl)quinolin-8-yl)-6,7-dihydro-1H-pyrrolo[3,2-c]pyridin-4(5H)-one], the figures for the pIC50 on Pim-2 [2] and on Pim-1 [3] were 6.91 and 7.23, respectively.

For the compound `CC(c1ccccc1)c1ccc2cccc(-c3cc4c([nH]3)CCNC4=O)c2n1` (single isomer, unassigned) [Example 116, 2-(2-(1-phenylethyl)quinolin-8-yl)-6,7-dihydro-1H-pyrrolo[3,2-c]pyridin-4(5H)-one], the negative logarithm of the IC50 (pIC50) is 7.75 at Pim-2 [2] and 8.12 on Pim-1 [3].

For the compound `CCC1CNC(=O)c2cc(-c3cccc4cc(C)c(Nc5ccccc5)nc34)[nH]c21` (single isomer, unassigned) [Example 117, 7-ethyl-2-(3-methyl-2-(phenylamino)quinolin-8-yl)-6,7-dihydro-1H-pyrrolo[3,2-c]pyridin-4(5H)-one], the pIC50 on Pim-2 [2] is 9.05.

For `CCC1CNC(=O)c2cc(-c3cccc4cc(C)c(Nc5ccccc5)nc34)[nH]c21` (single isomer, unassigned) [Example 118, 7-ethyl-2-(3-methyl-2-(phenylamino)quinolin-8-yl)-6,7-dihydro-1H-pyrrolo[3,2-c]pyridin-4(5H)-one], at Pim-2 [2], the negative-log IC50 (pIC50) was 7.79.

For the compound `Cc1nc2cccc(-c3cc4c([nH]3)CCNC4=O)c2nc1N[C@H]1CCC[C@@H](N)C1` (single isomer, unassigned) [Example 140, 2-(3-((cis-3-aminocyclohexyl)amino)-2-methylquinoxalin-5-yl)-6,7-dihydro-1H-pyrrolo[3,2-c]pyridin-4(5H)-one], the pIC50 is greater than 10.00 at Pim-2 [4] (setting [6]), 9.70 on Pim-2 [2], 9.10 at Pim-1 [3] and 9.52 on Pim-1 [1] (setting [5]).

On to `Cc1nc2cccc(-c3cc4c([nH]3)CCNC4=O)c2nc1N[C@H]1CCC[C@@H](N)C1` (single isomer, unassigned) [Example 141, 2-(3-((cis-3-aminocyclohexyl)amino)-2-methylquinoxalin-5-yl)-6,7-dihydro-1H-pyrrolo[3,2-c]pyridin-4(5H)-one], for which the negative-log IC50 (pIC50) on Pim-2 [4] (setting [6]) was 8.46; at Pim-2 [2], 8.03; at Pim-1 [3], 8.43; at Pim-1 [1] (setting [5]), 8.89.

For `Cc1nc2cccc(-c3cc4c([nH]3)CCNC4=O)c2nc1NC1CCCOC1` (single isomer, unassigned) [Example 208, 2-(2-methyl-3-((tetrahydro-2H-pyran-3-yl)amino)quinoxalin-5-yl)-6,7-dihydro-1H-pyrrolo[3,2-c]pyridin-4(5H)-one], the negative logarithm of the IC50 (pIC50) at Pim-2 [4] (setting [6]) is 8.68.

As to `CC[C@@H]1CNC(=O)c2cc(-c3cccc4ccc(Nc5ccccc5)nc34)[nH]c21` [Example 25, (R)-7-ethyl-2-(2-(phenylamino)quinolin-8-yl)-6,7-dihydro-1H-pyrrolo[3,2-c]pyridin-4(5H)-one], the pIC50 on Pim-2 [2] was 7.53.

For the compound `CC[C@H]1CNC(=O)c2cc(-c3cccc4ccc(Nc5ccccc5)nc34)[nH]c21` [Example 239, (S)-7-ethyl-2-(2-(phenylamino)quinolin-8-yl)-6,7-dihydro-1H-pyrrolo[3,2-c]pyridin-4(5H)-one], the negative logarithm of the IC50 (pIC50) at Pim-2 [2] was 8.55.

Turning to `Cc1nc2ccc(F)c(-c3cc4c([nH]3)[C@@H](C)NC4=O)c2nc1NC(C)(C)C` [Example 297, (6R)-2-(3-(tert-butylamino)-6-fluoro-2-methyl-5-quinoxalinyl)-6-methyl-5,6-dihydropyrrolo[3,4-b]pyrrol-4(1H)-one], on Pim-1 [1] (setting [5]), the negative logarithm of the IC50 (pIC50) is 9.94.

As to `Cc1nc2cccc(-c3cc4c([nH]3)[C@@H](C)NC4=O)c2nc1NC(C)(C)C` [Example 326, (6R)-2-(3-(tert-butylamino)-2-methyl-5-quinoxalinyl)-6-methyl-5,6-dihydropyrrolo[3,4-b]pyrrol-4(1H)-one], the negative logarithm of the IC50 (pIC50) on Pim-2 [4] (setting [6]) is 9.25; on Pim-1 [1] (setting [5]) it was 9.21.

Turning to `Cc1nc2cccc(-c3cc4c([nH]3)[C@H](C)NC4=O)c2nc1NC(C)(C)C` [Example 327, (6S)-2-(3-(tert-butylamino)-2-methyl-5-quinoxalinyl)-6-methyl-5,6-dihydropyrrolo[3,4-b]pyrrol-4(1H)-one], the negative-log IC50 (pIC50) is 8.69 at Pim-2 [4] (setting [6]) and 8.68 on Pim-1 [1] (setting [5]).

In the case of `Cc1nc2cccc(-c3cc4c([nH]3)[C@H](C)NC4=O)c2nc1NCC(F)F` [Example 383, (S)-2-(3-((2,2-difluoroethyl)amino)-2-methylquinoxalin-5-yl)-6-methyl-5,6-dihydropyrrolo[3,4-b]pyrrol-4(1H)-one], the pIC50 was 8.34 on Pim-2 [4] (setting [6]) and 8.43 on Pim-1 [1] (setting [5]).

Turning to `C[C@H]1NC(=O)c2cc(-c3c(F)ccc4c(=O)n(C)c(NC(C)(C)C)nc34)[nH]c21` [Example 405, 2-(tert-butylamino)-7-fluoro-3-methyl-8-((6R)-6-methyl-4-oxo-1,4,5,6-tetrahydropyrrolo[3,4-b]pyrrol-2-yl)-4(3H)-quinazolinone], the pIC50 at Pim-2 [4] (setting [6]) and on Pim-1 [1] (setting [5]) was 10.92 in each case.

As to `Cc1nc2cccc(-c3cc4c([nH]3)CCNC4=O)c2nc1N[C@H]1C[C@H](N)C1` [Example 437, 2-(3-(((1r,3r)-3-aminocyclobutyl)amino)-2-methylquinoxalin-5-yl)-6,7-dihydro-1H-pyrrolo[3,2-c]pyridin-4(5H)-one hydrochloride], at Pim-2 [4] (setting [6]), the pIC50 is 9.40.

Consider `Cn1c(NC(C)(C)C)nc2c(-c3cc4n(c3)CCNC4=O)cccc2c1=O` [Example 449, 2-(tert-butylamino)-3-methyl-8-(1-oxo-1,2,3,4-tetrahydropyrrolo[1,2-a]pyrazin-7-yl)-4(3H)-quinazolinone], for which, on Pim-2 [4] (setting [6]), the pIC50 is 8.39.

In the case of `Cc1nc2cccc(-c3[nH]c4c(c3Cl)C(=O)N[C@@H]4C)c2nc1NC(C)(C)C` [Example 455, (6R)-2-(3-(tert-butylamino)-2-methyl-5-quinoxalinyl)-3-chloro-6-methyl-5,6-dihydropyrrolo[3,4-b]pyrrol-4(1H)-one], the figures for the pIC50 at Pim-2 [4] (setting [6]) and on Pim-1 [1] (setting [5]) were 8.84 and 9.07, respectively.

For `Cn1c(NC(C)(C)C)nc2c(-c3cc4c([nH]3)C3(CC3)NC4=O)cccc2c1=O` [Example 456, 2′-(2-(tert-butylamino)-3-methyl-4-oxo-3,4-dihydro-8-quinazolinyl)-1′H-spiro[cyclopropane-1,6′-pyrrolo[3,4-b]pyrrol]-4′(5′H)-one], the pIC50 on Pim-2 [4] (setting [6]) was 9.39.

As to `CCn1c(NC(C)(C)C)nc2c(-c3cc4c([nH]3)[C@@H](C)NC4=O)cccc2c1=O` [Example 481, (R)-2-(tert-butylamino)-3-ethyl-8-(6-methyl-4-oxo-1,4,5,6-tetrahydropyrrolo[3,4-b]pyrrol-2-yl)quinazolin-4(3H)-one], the negative logarithm of the IC50 (pIC50) at Pim-2 [4] is 10.11; on Pim-1 [1] it was 10.09.

On to `C[C@H]1NC(=O)c2cc(-c3c(F)ccc4c(=O)n(C5CC5)c(NC5(C)CCC5)nc34)[nH]c21` [Example 498, 3-Cyclopropyl-7-fluoro-2-((1-methylcyclobutyl)amino)-8-((6R)-6-methyl-4-oxo-1,4,5,6-tetrahydropyrrolo[3,4-b]pyrrol-2-yl)-4(3H)-quinazolinone], for which the negative logarithm of the IC50 (pIC50) on Pim-2 [4] (setting [6]) was 10.00.

For `C[C@H]1NC(=O)c2cc(-c3c(F)ccc4c(=O)n(C)c(NC5(C)CCC5)nc34)[nH]c21` [Example 502, 7-fluoro-3-methyl-2-((1-methylcyclobutyl)amino)-8-((6R)-6-methyl-4-oxo-1,4,5,6-tetrahydropyrrolo[3,4-b]pyrrol-2-yl)-4(3H)-quinazolinone], the negative-log IC50 (pIC50) at Pim-2 [4] was 9.70; at Pim-1 [1], 10.00.

In the case of `C[C@H]1NC(=O)c2cc(-c3c(F)ccc4c(=O)n(C)c(NC5(C)CC5)nc34)[nH]c21` [Example 510, (R)-7-fluoro-3-methyl-8-(6-methyl-4-oxo-1,4,5,6-tetrahydropyrrolo[3,4-b]pyrrol-2-yl)-2-((1-methylcyclopropyl)amino)quinazolin-4(3H)-one], the pIC50 at Pim-2 [4] is 10.00; on Pim-1 [1], 10.19.

These data come from US9394297B2, “Amides as pim inhibitors” (AMGEN INC., priority 2012, dated 2016).
